Ratio data for 1 compound are collected here from ChEMBL document CHEMBL1134413, “Effect of N-alkyl and N-alkenyl substituents in noroxymorphindole, 17-substituted-6,7-dehydro-4,5alpha-epoxy-3,14-dihydroxy-6,7:2',3'-indolomorphinans, on opioid receptor affinity, selectivity, and efficacy” (J Med Chem, 2001).

The chains behind the UniProt entries cited, without tags or fusion partners.
UniProt P41143, whole entry, looked up: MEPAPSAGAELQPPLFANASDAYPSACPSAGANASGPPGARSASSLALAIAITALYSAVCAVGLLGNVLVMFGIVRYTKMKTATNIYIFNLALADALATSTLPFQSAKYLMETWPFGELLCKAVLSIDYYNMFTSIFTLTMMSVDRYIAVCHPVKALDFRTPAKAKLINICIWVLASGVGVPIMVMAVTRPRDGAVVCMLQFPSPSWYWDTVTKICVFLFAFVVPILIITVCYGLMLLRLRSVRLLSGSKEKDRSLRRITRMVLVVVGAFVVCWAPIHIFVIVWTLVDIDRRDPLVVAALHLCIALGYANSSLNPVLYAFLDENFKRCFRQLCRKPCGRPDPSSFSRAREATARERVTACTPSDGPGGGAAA
UniProt P35372, whole entry, looked up: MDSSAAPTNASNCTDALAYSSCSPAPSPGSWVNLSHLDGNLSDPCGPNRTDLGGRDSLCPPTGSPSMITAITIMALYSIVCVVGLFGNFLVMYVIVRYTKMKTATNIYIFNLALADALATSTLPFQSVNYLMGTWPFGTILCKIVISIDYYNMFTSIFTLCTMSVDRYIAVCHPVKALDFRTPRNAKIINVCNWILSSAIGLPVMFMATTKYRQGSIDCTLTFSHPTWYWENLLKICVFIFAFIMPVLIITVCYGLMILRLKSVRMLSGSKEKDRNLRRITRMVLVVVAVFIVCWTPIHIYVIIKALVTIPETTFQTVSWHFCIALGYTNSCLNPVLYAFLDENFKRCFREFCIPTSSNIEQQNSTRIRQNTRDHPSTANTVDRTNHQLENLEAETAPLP

The experiment concerns the target Opioid receptors; mu & delta (Homo sapiens) (UniProt P41143+P35372). The experiment can be described thus: Selectivity ratio (mu/delta) of the compound. It counts as functional.

For `Cl.Oc1ccc2c3c1O[C@H]1c4[nH]c5ccccc5c4C[C@@]4(O)[C@@H](C2)N(CC2CC2)CC[C@]314` [NALTRINDOLE HYDROCHLORIDE], the Ratio was found to be 90.
